According to ChEMBL document CHEMBL5634209, “Computational design, synthesis, and assessment of 3-(4-(4-(1,3,4-oxadiazol-2-yl)-1H-imidazol-2-yl)phenyl)-1,2,4-oxadiazole derivatives as effective epidermal growth factor receptor inhibitors: a prospective strategy for anticancer therapy” (RSC Med Chem, 2024):

Experiments:
Homo sapiens = species: Homo sapiens; assay: Selectivity index, ratio of IC50 for inhibition of EGFR T790M mutant (unknown origin) to IC50 for inhibition of wild type EGFR (unknown origin)
[1] = target: T1, Epidermal growth factor receptor (Homo sapiens, UniProt P00533); assay: Inhibition of EGFR autophosphorylation in human HepG2 cells assessed as fold change in EGFR protein level at 440 nM pretreated with compound for 1 hr followed by EGF addition by western blot analysis; format: cell-based
[2] = target: T1, Epidermal growth factor receptor; assay: Inhibition of EGFR autophosphorylation in human HepG2 cells assessed as fold change in phosphorylated EGFR protein level at 440 nM pretreated with compound for 1 hr followed by EGF addition by western blot analysis; format: cell-based

COc1cc(-c2nc(-c3ccc(-c4nc(-c5nnc(-c6ccncc6)o5)c[nH]4)cc3)no2)cc(OC)c1OC
Ratio IC50 (Homo sapiens): 10
fold change (FC) [1]: 0.22
fold change (FC) [2]: 0.17
